# Yeast mating assay B: variants of the scFv Ab-14

Target: peptide PDVDLGDISGINAS, taken from heptad repeat 2 (HR2) of SARS-CoV-2 spike.

Parent scFv Ab-14: VH joined to VL by a (GGGGS)3 linker. Changes lie in the heavy chain CDRs alone.
VH: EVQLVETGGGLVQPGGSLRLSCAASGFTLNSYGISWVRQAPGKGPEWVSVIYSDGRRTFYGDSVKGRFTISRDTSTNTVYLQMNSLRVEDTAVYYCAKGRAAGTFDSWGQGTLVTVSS
VL: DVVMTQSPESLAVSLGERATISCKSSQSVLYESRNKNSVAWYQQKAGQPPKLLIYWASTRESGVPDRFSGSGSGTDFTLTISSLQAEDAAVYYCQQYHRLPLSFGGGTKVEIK

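The starting antibody came from a phage panning campaign against this peptide. This is the validation round: designs drawn from the data on random variants, tested in the same kind of assay. Group labels follow the data file (Ctrl: baseline library sampled from a position-specific scoring matrix, with some repeated check sequences; GPLM: also part of the Gaussian process libraries; Gen: genetic algorithm; a sequence that several methods proposed may carry one label only). The scFvs were displayed on barcoded MATa yeast, the peptide on MATalpha yeast. Mating (16 h, 30 °C) was followed by selection of diploids and sequencing of their barcodes. Each replicate has its own calibration line, from reference interactions of the BCL2 family. There are six technical replicates.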

Variants are written as CDR1, CDR2 and CDR3 of the heavy chain (limits as in the source). Parent: GFTLNSYGIS, VIYSDGRRTFYGDSVK, GRAAGTFDS. Scale: log10 of Kd in nM, estimated from mating counts; low values are strong binders. The mean shown is taken over the replicates in which the pair was detected. A pair that was not seen in that replicate is written "nd"; this usually means weak binding, but a binder can also be missed.

GFTLDEYGIS | VIYSDGRRTFYGDAVK | GRAAGTFDS [Ctrl]: nd, nd, nd, -0.49, 0.23, 0.79 (mean 0.17; controls 0 of 18).
GFTLDEYGIS | VIYSDGRRTFYGDSVK | GRAADTFDW [Ctrl]: nd, nd, nd, nd, nd, nd (controls 0 of 18).
GFTLNSYGIS | VIYADGRRTFYQDSVK | GRAAHTFDS [Ctrl]: 0.08, 0.02, 0.30, 0.17, nd, 0.31 (mean 0.17; controls 0 of 18).
GFELNSYGIS | VIYSDGLRTFYGDSVK | VRAIGKFDS [Ctrl]: nd, nd, nd, nd, nd, nd (controls 0 of 18).
GFTLNSYGIS | VIYRDGRRTHYGDSVK | GRAAGTDDS [Ctrl]: nd, nd, nd, nd, nd, nd (controls 0 of 18).
GFTLNSYGIS | VIYSDGRRTFYGDSVR | GQAAGTFDS [Ctrl]: nd, nd, nd, nd, nd, nd (controls 0 of 18).
GFTLNSYGIS | VIYSDGRRTHYGDSVK | GRAACTFWS [Ctrl]: nd, nd, nd, nd, nd, nd (controls 0 of 18).
LFTLNSYGIS | VIYSDGRKTQYGDSVK | GHAAGIFDS [Ctrl]: nd, nd, nd, nd, nd, nd (controls 0 of 18).
GFNLNSYGIS | VIYSDGRRTQYGDSVK | GEAAGTFDD [Ctrl]: nd, nd, nd, nd, nd, nd (controls 0 of 18).
GFTLNSYGIS | VIYADGRRTFYGDSVK | GRAAGTFDL [Ctrl+GPLM_Gen]: 0.45, 0.23, 0.08, 0.31, 0.50, 0.52; 0.29, -0.18, 0.61, -0.34, -0.06, -0.26 (mean 0.18; controls 0 of 36).
GFVLTSYGIS | VIYADGRRTFYGDSVK | GSQAGQFDS [Ctrl]: nd, nd, nd, nd, nd, nd (controls 0 of 18).
GFKLNSYGIS | VIYSDGRRTFYGDSVK | GRTAGTFDS [Ctrl+GPLM_Gen]: 0.66, nd, nd, 1.27, nd, 1.28; nd, nd, 1.42, nd, nd, nd (mean 1.16; controls 0 of 36).
GFNLNSYGIS | VIYSDGRRTAYGDSVK | WRAAGTFDS [Ctrl]: nd, nd, nd, nd, nd, nd (controls 0 of 18).
GFTLNSYGIS | VIYSDGRRTFYGDSVK | IRAAGTFDQ [Ctrl]: nd, nd, nd, nd, nd, nd (controls 0 of 18).
GFTLNSYGIS | VIYSDGRRLFYGDSVR | GRAAGTFDS [Ctrl]: nd, nd, nd, nd, nd, nd (controls 0 of 18).
GFTLQSYGIS | VIYSDGRRTSYGDSVK | GDAADTFDS [Ctrl]: nd, nd, nd, nd, nd, nd (controls 0 of 18).
GHTLNMYGIS | VIYSDGRRTFYGDSVK | GYAAGTFDS [Ctrl]: nd, nd, nd, nd, 1.56, nd (controls 0 of 18).
GFTLNSYGIS | VIYSDGRRTFYGDSVK | GRAAKTFDD [Ctrl]: nd, nd, nd, nd, nd, nd (controls 0 of 18).
GFTLNDYGIS | VIYSDGRRTAYGDQVK | RRMAGTFDS [Ctrl]: nd, nd, nd, nd, nd, nd (controls 0 of 18).
GFTLTSYGIS | VIYSDGRRTFYGDSVK | GRAAGTFDS [Ctrl]: nd, nd, nd, nd, nd, nd (controls 0 of 18).
GFTLNSYGIS | VIYADGRRTFYSDSVK | GRAPATFDS [Ctrl]: 2.80, nd, 1.05, nd, nd, nd (mean 1.92; controls 0 of 18).
GFTLNSYGIS | VIYSDGRRTFYIDNVK | GRRAGTFDS [Ctrl]: nd, nd, nd, nd, nd, nd (controls 0 of 18).
GFTLNSYGIS | VIYSDGRRTFYGDSVK | GRFADTDVS [Ctrl]: nd, nd, nd, nd, nd, nd (controls 0 of 18).
GFTLNSYGIS | VIYSDGRRTFYGDSVK | GDAAGTFDS [Ctrl]: 1.06, 1.66, 1.28, 0.80, 1.15, 0.98 (mean 1.15; controls 0 of 18).
GFDLNSYGIS | VIYADGRRTFYGDSVK | GRLAGVFDS [Ctrl]: 0.76, -0.32, 0.50, -0.16, 1.80, 0.74 (mean 0.55; controls 0 of 18).
GFTLNSYGIS | VIYSDGQRTFYGDSVK | GQAAGTFDS [Ctrl]: nd, 1.45, 1.33, 1.06, 1.20, 2.18 (mean 1.44; controls 0 of 18).
GFTLNSYGIS | VIYSCGRRTFYGDSVK | GRGAGTFDS [Ctrl]: nd, nd, nd, nd, nd, nd (controls 0 of 18).
GFTLNSYGIS | VIYSDGRRTFYGDSVK | GRAAGFFDS [Ctrl]: nd, nd, nd, nd, nd, nd (controls 0 of 18).
GYTLNSYGIS | VIYSDGRRTFYSDSVK | GRAAGTFDS [Ctrl]: 1.13, 1.65, 0.63, 0.65, 0.77, 0.81 (mean 0.94; controls 1 of 18).
QFELNSYGIS | VIYSDGRRTFYGDDVK | GRMAGTNDS [Ctrl]: nd, nd, nd, nd, nd, nd (controls 0 of 18).
GFSLNSYGIS | VIYRDGRRTFYEDFVK | GRAAGTFDP [Ctrl]: nd, nd, nd, nd, nd, nd (controls 0 of 18).
GFTLNSYGIS | VIYSDGRRTFYIDAVK | GREAGTFDS [Ctrl]: nd, nd, nd, nd, nd, nd (controls 0 of 18).
GFTLNSYGIS | VIYSDGRRTFYGDSVK | GRLAGTFKS [Ctrl]: nd, nd, nd, nd, nd, nd (controls 0 of 18).
GFTLNSYGIS | VIYADGRRTFYGGSVK | GRAAGTFDS [Ctrl]: nd, nd, nd, nd, nd, nd (controls 1 of 18).
GFWLNSYGIS | VIYSDGRRTFYGDSVK | GRIAGSFDS [Ctrl]: nd, nd, nd, nd, nd, nd (controls 0 of 18).
GFTLNSYGIS | VIYSDGRRTFYGDSVK | GRAAGTFDN [Ctrl]: nd, nd, nd, nd, nd, nd (controls 0 of 18).
GFTLNEYGIS | VIYSDGRRTFYGDSVK | GQAAGTFDS [Ctrl+GPLM_Gen]: 0.45, 0.44, 0.47, 0.47, 0.99, 0.95; 0.14, 0.34, 1.22, 1.47, 1.48, 0.60 (mean 0.75; controls 0 of 36).
KFTLNSYGIS | VIYSDGRRTFYGDSVK | GRAAGTFCS [Ctrl]: nd, nd, nd, nd, nd, nd (controls 0 of 18).
GFTLRSYGIS | VIYRDGRRTFYKDSVK | GIAAGTFES [Ctrl]: nd, nd, nd, nd, nd, nd (controls 0 of 18).
HFTINSYGIS | VIYADGRRTFYGDSVK | GRAAGTFDS [Ctrl]: 1.87, 1.47, 1.50, 1.31, 2.82, 2.03 (mean 1.83; controls 2 of 18).
GFTLNSYGIS | VIYSDGLRTFYTDSFK | GRARGTFDS [Ctrl]: nd, nd, nd, nd, nd, nd (controls 0 of 18).
GFDLQSYGIS | VIYSDGRRTFYLDSVK | GRAAGTFDS [Ctrl]: 1.30, 0.86, 0.49, 0.22, 2.06, 0.75 (mean 0.95; controls 0 of 18).
GETLNSYGIS | VIYSDGRRTFYDDDVK | GRAAHTFSS [Ctrl]: nd, nd, nd, nd, nd, nd (controls 0 of 18).
GFTLNSYGIS | VIYSDGRRTFYKDSVK | GRQAGTFDS [Ctrl]: 1.11, 2.34, 4.11, 5.09, nd, 2.81 (mean 3.09; controls 1 of 18).
GFTVNEYGIS | VIYSDGRRTFYGDSVK | GRIAGTFDS [Ctrl]: 0.46, 0.45, 0.09, 0.44, 1.04, 0.50 (mean 0.50; controls 0 of 18).
GETLNSYGIS | VIYSDGRRTHYGDSVK | GFEAGTFDS [Ctrl]: nd, 2.09, 2.09, nd, nd, nd (mean 2.09; controls 0 of 18).
GFTLNSYGIS | VIYSDGFRTFYGDSVK | GAAAGIFDS [Ctrl]: nd, nd, nd, 2.59, nd, nd (controls 1 of 18).
GFTLNSYGHS | VIYSDGRRTFYGDSVK | GRAAGTFDA [Ctrl]: nd, nd, nd, nd, nd, nd (controls 0 of 18).
RFTLNSYGIS | VIYSDGRRTFYGDSVK | GRAAGTFRS [Ctrl]: 2.99, 1.66, 0.90, nd, 1.49, 1.62 (mean 1.73; controls 0 of 18).

The first 3 entries again:

{"CDR-H1": "GFTLDEYGIS", "CDR-H2": "VIYSDGRRTFYGDAVK", "CDR-H3": "GRAAGTFDS", "group": "Ctrl", "replicates, log10 nM": "nd, nd, nd, -0.49, 0.23, 0.79", "log10 Kd (nM), mean": "0.17", "signal with controls": "0 of 18"}
{"CDR-H1": "GFTLDEYGIS", "CDR-H2": "VIYSDGRRTFYGDSVK", "CDR-H3": "GRAADTFDW", "group": "Ctrl", "replicates, log10 nM": "nd, nd, nd, nd, nd, nd", "log10 Kd (nM), mean": "nd", "signal with controls": "0 of 18"}
{"CDR-H1": "GFTLNSYGIS", "CDR-H2": "VIYADGRRTFYQDSVK", "CDR-H3": "GRAAHTFDS", "group": "Ctrl", "replicates, log10 nM": "0.08, 0.02, 0.30, 0.17, nd, 0.31", "log10 Kd (nM), mean": "0.17", "signal with controls": "0 of 18"}

The authors' rule: three or more of the six replicates give a measured affinity, fewer mean a poor binder. Some sequences occur more than once in the pool; their replicates are listed entry by entry, parted by semicolons. Three control strains display no target. For all heavy chain designs, 1% of the pairings with them gave a signal, with a median of 2.08 and one signal in twenty below 0.84, so weak values seen in few replicates may be background. The control count says in how many pairings with the empty strains this scFv gave a signal. Values of this round are not directly comparable with the first-round values of the same sequences.

From the AlphaSeq antibody data of Li et al. 2023 (doi:10.1038/s41467-023-39022-2), copy in the FLAb collection.